Measured values from article PMC3701944 (Journal of medicinal chemistry, 2013).

Amino acid sequences for entries named in this document (tags omitted). A change or cut given only in a name is not applied to a line headed by its entry.
UniProt P41145: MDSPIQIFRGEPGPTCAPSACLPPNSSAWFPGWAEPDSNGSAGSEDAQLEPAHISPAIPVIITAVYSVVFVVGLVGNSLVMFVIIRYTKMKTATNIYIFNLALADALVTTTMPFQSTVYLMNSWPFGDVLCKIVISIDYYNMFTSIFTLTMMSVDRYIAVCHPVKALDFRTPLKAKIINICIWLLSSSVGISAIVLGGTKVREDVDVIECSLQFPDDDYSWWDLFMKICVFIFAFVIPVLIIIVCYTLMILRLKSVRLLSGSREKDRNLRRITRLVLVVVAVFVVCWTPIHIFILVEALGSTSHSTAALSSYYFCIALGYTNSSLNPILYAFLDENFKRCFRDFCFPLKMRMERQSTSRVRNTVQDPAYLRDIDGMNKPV

Molecular target: cloned human κ opioid receptor (KOP) (Homo sapiens, UniProt P41145)
Test: [35S]GTPγS binding assay, inhibition of U69,593-stimulated binding
Assay type: biochemical
Conditions: ratio of Ke values

**Q.** Which δ/κ (selectivity for κ relative to δ (fold)) does the source give for norBNI [reference compound] here?
**A.** 580

**Q.** What about the μ/κ (selectivity for κ relative to μ (fold)) of the same substance?
**A.** 534
